Source: PubChem BioAssay
Rows were chosen to be rich in hits. Some 1.9% of all compounds tested hit in one or more screens of this group.
ARNT TACC3 PPI = disruptors of ARNT/TACC3 protein interaction, primary screen, biochemical, AlphaScreen, single concentration. inhibition, % at 9.99 µM. actives 0.66% (n = 390,000). Transforming acidic coiled-coil-containing protein 3 (Homo sapiens), Q9Y6A5. AlphaScreen His-ARNT PAS-B/GST-TACC3 binding, luminescence; TACC3 fragment carries E629A point mutation. AID 623870, 2012;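 active = mean inhibition of replicates at least 50% and at least half of replicates each reaching 50%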;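 note: 0% = complete ARNT plus TACC3 wells and 100% = ARNT alone without TACC3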
PDI turbidity = inhibitors of human PDI, primary screen, biochemical, turbidity, single point, plate reader; inhibition, % at 10 µM; AID 588391, 2011; actives 0.052% (n = 350,000); PDI insulin aggregation turbidity, A650, 90 min;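 active = mean inhibition across replicates of 30% or more, whatever share of single replicates reach that level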
UUG fidelity = yeast start codon fidelity modulation | S. cerevisiae UUG-firefly luciferase reporter, luminescence/redox ratio | activity score, % at 18.7 µM | hit rate 0.13% among 350,000 | AID 602363;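 active means replicate mean at a twofold rise or more, about +100% in these data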;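 further: firefly luciferase made from a UUG start codon reports start codon fidelity; reporter light over untreated wells divided by growth signal over untreated wells; some hits fall short of that in this replicate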
FGF22 binding = binders of human FGF22 protein, primary screen, FGF22 synaptogenesis inhibitor project, biophysical, thermal shift, single point. AID 651658, 2012. recombinant FGF22 thermal shift, SYPRO orange fluorescence; percent of sucrose octasulfate shift, DMSO zero. actives 1.5% (n = 340,000). Fibroblast growth factor 22 (Homo sapiens), Q9HCT0. activity (Tm shift, normalised), % at 9.99 µM;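 active = mean Tm shift, scaled 0 neutral to 100 positive control, at about 1.3% or above, every replicate too, limit read from the data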
PglD inh = C. jejuni PglD acetyltransferase inhibitors, primary screen, biochemical, DTNB colorimetric, single point; inhibition, % at 12.5 µM; UDP-N-acetylbacillosamine N-acetyltransferase PglD (Campylobacter jejuni); purified PglD enzyme, DTNB colorimetric CoA detection; actives 0.098% (n = 360,000); in the data active = inhibition above about 16%, passing the limit was not always enough
ERp5 block = inhibitors of ERp5-driven insulin aggregation, primary screen, biochemical, turbidity, absorbance 650 nm, single point | Protein disulfide-isomerase A6 (Homo sapiens), Q15084 | inhibition, % at 9.99 µM | 90 min | AID 651711, 2012 | actives 0.05% (n = 350,000);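 active = mean replicate inhibition above about 25%, with every replicate also reaching it, limit read from the data, passing the limit was not always enough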
The depositor's hits bear a star; x = no result.

Assay codes: A = ARNT TACC3 PPI; B = PDI turbidity; C = UUG fidelity; D = FGF22 binding; E = PglD inh; F = ERp5 block
#1 CN1C(=O)c2cc(NC(=O)c3cccs3)ccc2OC[C@H]2O[C@@H](CC(=O)NCC3CC3)CC[C@H]21
  A: 4 | B: x | C: 15 | D: 0 | E: -1 | F: x

#2 CCNC(=S)NNC(=O)c1cccn(Cc2ccc(Cl)cc2)c1=O
  A: 44* | B: -4 | C: -24 | D: x | E: -2 | F: x

#3 O=C(Nc1ccc(-c2nnc3n2CCCCC3)cc1)c1cc2ccccc2o1
  A: -2 | B: 19 | C: x | D: 44* | E: x | F: -3

#4 O=S(=O)(c1ccc(Cl)nc1)N1CCCCC1
  A: -16 | B: -4 | C: -12 | D: 0 | E: 3 | F: 2

#5 O=S(=O)(c1ccc(S(=O)(=O)N2CCOCC2)cc1)N1CCCC1
  A: -3 | B: 1 | C: x | D: 43* | E: x | F: 2

#6 O=S(=O)(c1ccc(Cl)nc1)N1CCOCC1
  A: 22* | B: 11 | C: -4 | D: 0 | E: -2 | F: 3

#7 CCC(=O)N1CC2(CN(C(=O)Nc3ccccc3F)C2)c2c([nH]c3cc(OC)ccc23)[C@@H]1CO
  A: x | B: x | C: x | D: 0 | E: x | F: 0

#8 O=C(/C=C/c1c(Cl)nc2ccccn12)Nc1ccc(F)cc1
  A: 0 | B: -2 | C: x | D: 44* | E: x | F: 2

#9 O=Cc1c(Cl)nc2ccccn12
  A: -30 | B: -3 | C: x | D: 0 | E: x | F: 5

#10 C[C@@H]1CN([C@H](C)CO)C(=O)c2cc(C3=CCCC3)cnc2O[C@H]1CN(C)Cc1cccc(F)c1
  A: 17 | B: x | C: 19 | D: 0 | E: 4 | F: 0

#11 Cc1ccnc2c1ccc1cccnc12
  A: 63* | B: -1 | C: -57 | D: 0 | E: -1 | F: 8

#12 Cc1ccnc2c1ccc1c(C)ccnc12
  A: 70* | B: -7 | C: -62 | D: x | E: -4 | F: x

#13 Cc1ccnc2c1ccc1ccccc12
  A: -9 | B: 2 | C: -14 | D: 0 | E: -2 | F: 0

#14 COc1ccc(CN(C)C[C@H]2OCCCC[C@@H](C)Oc3ccc(NC(=O)CCCN(C)C)cc3C(=O)N([C@@H](C)CO)C[C@@H]2C)cc1
  A: 0 | B: x | C: 1 | D: 0 | E: -3 | F: 1

#15 NC(=O)NC(CC(=O)NCCc1ccccn1)c1ccccc1Cl (centres undefined)
  A: -2 | B: -1 | C: -5 | D: 0 | E: -1 | F: -3

#16 NC(=O)NC(CC(=O)NCCCc1ccccc1)c1ccccc1Cl (centres undefined)
  A: 2 | B: 15 | C: x | D: 43* | E: x | F: -2

#17 Cc1noc(C)c1NC(=O)Nc1cccc2c1O[C@H](CN(C)Cc1ccc3c(c1)OCO3)[C@H](C)CN([C@@H](C)CO)C2=O
  A: x | B: x | C: 3 | D: 0 | E: -1 | F: -1

#18 CC(C)C(NC(=O)c1ccc(F)cc1)C(=O)N1CCOCC1 (centres undefined)
  A: 27 | B: -7 | C: -3 | D: 0 | E: -6 | F: 27*

#19 C[C@@H]1CN([C@H](C)CO)C(=O)c2cc(C#CC3CCCCC3)cnc2O[C@@H]1CN(C)C(=O)Nc1ccccc1
  A: 10 | B: x | C: 9 | D: -1 | E: 4 | F: -1

#20 CN(Cc1ccccc1)S(=O)(=O)c1cccc2nsnc12
  A: -3 | B: 0 | C: x | D: 44* | E: x | F: -1

#21 Cc1cc2ccccn2c1C(=O)c1cc([N+](=O)[O-])cc([N+](=O)[O-])c1
  A: 16 | B: 1 | C: x | D: 0 | E: x | F: 6

#22 CCN(CC)S(=O)(=O)c1cccc(C(=O)c2c(C)cc3ccccn23)c1
  A: x | B: 7 | C: x | D: 43* | E: x | F: -4

#23 CCOC(=O)C1CCN(C(=O)Cc2ccccc2OC)CC1
  A: -5 | B: 12 | C: -12 | D: 56* | E: 0 | F: -3

#24 CCOC(=O)C1CCN(C(=O)c2c(-c3ccccc3)noc2C)CC1
  A: 8 | B: 4 | C: x | D: 43* | E: x | F: -10

#25 COCC(=O)N[C@@H]1CC[C@H](CC(=O)NCc2ccccc2OC)O[C@H]1CO
  A: 2 | B: x | C: -33 | D: 0 | E: 1 | F: -3

#26 O=C(CNc1cc([N+](=O)[O-])ccc1NCCO)Nc1cccc(S(=O)(=O)N2CCCCC2)c1
  A: 22 | B: 5 | C: 8 | D: 0 | E: -1 | F: -2

#27 O=C(CNc1cccc(S(=O)(=O)N2CCCCCC2)c1)Nc1cccc([N+](=O)[O-])c1
  A: 50* | B: -3 | C: -9 | D: 0 | E: 2 | F: 6

#28 N/C(COc1ccc(Cl)cc1)=N\NS(=O)(=O)c1ccccc1
  A: -2 | B: 5 | C: -18 | D: x | E: -1 | F: x

Among those listed so far, these contain two or more sulfur atoms:
Assay codes: A = ARNT TACC3 PPI; B = PDI turbidity; C = UUG fidelity; D = FGF22 binding; E = PglD inh; F = ERp5 block
#5 O=S(=O)(c1ccc(S(=O)(=O)N2CCOCC2)cc1)N1CCCC1
  A: -3 | B: 1 | C: x | D: 43* | E: x | F: 2

#20 CN(Cc1ccccc1)S(=O)(=O)c1cccc2nsnc12
  A: -3 | B: 0 | C: x | D: 44* | E: x | F: -1
